In PMC11149620 (Journal of medicinal chemistry, 2024):

Key:
[1] = biological target: T1, human ATAD2B BRD-containing protein (residues 953–1085) (Homo sapiens, UniProt Q9ULI0); experiment: ITC of histone peptides with the ATAD2B BRD
T1 sequence (Q9ULI0 953-1085): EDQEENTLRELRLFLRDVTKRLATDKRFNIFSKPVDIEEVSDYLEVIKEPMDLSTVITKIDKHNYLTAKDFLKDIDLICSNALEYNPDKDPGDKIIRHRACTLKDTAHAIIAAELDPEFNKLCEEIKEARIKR

[2] = biological target: T2, Human ATAD2 BRD-containing protein (residues 966–1112) (Homo sapiens, UniProt Q6PL18); experiment: ITC of histone peptides with the ATAD2 BRD
T2 sequence (Q6PL18 966-1112): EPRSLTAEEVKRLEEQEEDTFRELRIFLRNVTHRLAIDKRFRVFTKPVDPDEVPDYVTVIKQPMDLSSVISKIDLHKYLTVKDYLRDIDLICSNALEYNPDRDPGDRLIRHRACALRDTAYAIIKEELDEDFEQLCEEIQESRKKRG

[3] = biological target: Human ATAD2B BRD-containing protein (residues 953–1085) (human) (UniProt Q9ULI0); experiment: ITC

Compound | Kd [1] [µM] | Kd [2] [µM] | further results
CC(=O)NCCCC[C@H](NC(=O)CNC(=O)CNC(=O)[C@H](C)N)C(=O)N[C@@H](C)C(=O)NCC(=O)N[C@@H](CCCCN)C(=O)N[C@@H](CC(=O)O)C(=O)N[C@@H](CO)C(=O)NCC(=O)N[C@@H](CCCCN)C(=O)N[C@@H](C)C(=O)N[C@@H](CCCCN)C(=O)N[C@H](C(=O)N[C@@H](CCCCN)C(N)=O)[C@@H](C)O [H2A.ZK4ac (1–15)] | 79.3 ± 4.2 | – | –
CC(=O)NCCCC[C@H](NC(=O)CNC(=O)CNC(=O)[C@@H](NC(=O)[C@H](CCCCNC(C)=O)NC(=O)CNC(=O)[C@H](CCCNC(=N)N)NC(=O)CNC(=O)[C@@H](N)CO)[C@@H](C)O)C(=O)N[C@@H](C)C(=O)N[C@@H](CCCNC(=N)N)C(=O)N[C@@H](C)C(=O)N[C@@H](CCCCN)C(=O)N[C@@H](C)C(=O)N[C@@H](CCCCN)C(=O)N[C@@H](CO)C(=O)N[C@@H](CCCNC(=N)N)C(N)=O [H2A.XK5acK9ac (1–17)] | 66.6 ± 10.5 | 82 ± 11 | –
H4K5acK8ac (1–24) (peptide) | – | – | Kd [3]: 94.6 µM
H4K12acK20ac (1–24) (peptide) | – | – | stoichiometry N [3]: 1.01
CC(=O)NCCCC[C@H](NC(=O)CNC(=O)[C@H](CCCNC(=N)N)NC(=O)CNC(=O)[C@@H](N)CO)C(=O)N[C@H](C(=O)NCC(=O)NCC(=O)N[C@@H](CCCCN)C(=O)N[C@@H](C)C(=O)N[C@@H](CCCNC(=N)N)C(=O)N[C@@H](C)C(=O)N[C@@H](CCCCN)C(=O)N[C@@H](C)C(=O)N[C@@H](CCCCN)C(=O)N[C@@H](CO)C(=O)N[C@@H](CCCNC(=N)N)C(N)=O)[C@@H](C)O [H2A.XK5ac (1–17)] | 28.6 ± 2 | 160 ± 19.4 | –
CC(=O)NCCCC[C@H](NC(=O)CNC(=O)CNC(=O)[C@@H](NC(=O)[C@H](CCCCN)NC(=O)CNC(=O)[C@H](CCCNC(=N)N)NC(=O)CNC(=O)[C@@H](N)CO)[C@@H](C)O)C(=O)N[C@@H](C)C(=O)N[C@@H](CCCNC(=N)N)C(=O)N[C@@H](C)C(=O)N[C@@H](CCCCN)C(=O)N[C@@H](C)C(=O)N[C@@H](CCCCN)C(=O)N[C@@H](CO)C(=O)N[C@@H](CCCNC(=N)N)C(N)=O [H2A.XK9ac (1–17)] | – | 51.1 ± 5.4 | –
